These are literature values, as cited in paper PMC9441481, “Risk assessment and molecular mechanism study of drug-drug interactions between rivaroxaban and tyrosine kinase inhibitors mediated by CYP2J2/3A4 and BCRP/P-gp” (Frontiers in Pharmacology, 2022).

For this data set the following is noted: clinical oral dose of 50 mg/d; ref Di Gion et al., 2011; cited from earlier work.

On to `CCN(CC)CCNC(=O)c1c(C)[nH]c(/C=C2\C(=O)Nc3ccc(F)cc32)c1C` [Sunitinib], for which the maximum plasma concentration entry is on record as “approximately 70 nM”.
